# Results reported in ChEMBL document CHEMBL6074668 (J Med Chem, 2024).
# By UniProt entry, the sequences of proteins in these tests, tags left out. Where a name states a change or a piece, a line headed by the entry shows the natural chain unless it says otherwise.
# UniProt P28223, whole entry, looked up: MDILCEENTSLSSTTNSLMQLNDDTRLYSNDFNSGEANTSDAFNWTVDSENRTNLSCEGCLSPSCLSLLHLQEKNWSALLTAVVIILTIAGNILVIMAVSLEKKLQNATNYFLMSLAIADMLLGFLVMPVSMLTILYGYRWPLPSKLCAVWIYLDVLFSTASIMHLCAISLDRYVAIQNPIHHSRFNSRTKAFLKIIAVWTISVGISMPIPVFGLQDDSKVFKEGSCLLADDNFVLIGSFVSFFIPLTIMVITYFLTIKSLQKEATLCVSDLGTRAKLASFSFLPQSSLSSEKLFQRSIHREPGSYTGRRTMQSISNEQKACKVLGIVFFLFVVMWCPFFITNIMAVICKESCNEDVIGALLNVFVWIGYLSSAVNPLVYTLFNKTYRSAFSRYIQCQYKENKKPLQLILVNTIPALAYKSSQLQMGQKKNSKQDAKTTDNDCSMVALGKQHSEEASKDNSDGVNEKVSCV
# UniProt P41143, whole entry, looked up: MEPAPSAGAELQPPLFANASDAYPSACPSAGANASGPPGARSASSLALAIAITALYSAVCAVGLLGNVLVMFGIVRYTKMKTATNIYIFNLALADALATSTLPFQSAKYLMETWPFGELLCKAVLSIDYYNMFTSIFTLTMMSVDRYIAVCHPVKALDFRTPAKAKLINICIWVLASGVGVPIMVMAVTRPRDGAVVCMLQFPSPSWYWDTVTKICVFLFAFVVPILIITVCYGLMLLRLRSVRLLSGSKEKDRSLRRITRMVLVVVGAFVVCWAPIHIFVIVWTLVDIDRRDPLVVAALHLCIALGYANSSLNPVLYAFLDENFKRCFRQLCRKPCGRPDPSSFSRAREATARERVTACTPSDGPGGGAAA
# UniProt P35372, whole entry, looked up: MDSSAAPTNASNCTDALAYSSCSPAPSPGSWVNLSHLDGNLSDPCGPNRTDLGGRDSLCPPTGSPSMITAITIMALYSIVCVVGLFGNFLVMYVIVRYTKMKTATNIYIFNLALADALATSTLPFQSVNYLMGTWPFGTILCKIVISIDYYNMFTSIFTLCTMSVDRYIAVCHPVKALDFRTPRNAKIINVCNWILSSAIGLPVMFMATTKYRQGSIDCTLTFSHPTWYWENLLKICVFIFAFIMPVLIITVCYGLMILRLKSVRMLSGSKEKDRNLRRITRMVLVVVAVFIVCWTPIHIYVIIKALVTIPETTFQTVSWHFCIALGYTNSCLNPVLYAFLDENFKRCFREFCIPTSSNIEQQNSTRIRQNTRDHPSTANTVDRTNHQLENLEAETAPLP
# UniProt P41145: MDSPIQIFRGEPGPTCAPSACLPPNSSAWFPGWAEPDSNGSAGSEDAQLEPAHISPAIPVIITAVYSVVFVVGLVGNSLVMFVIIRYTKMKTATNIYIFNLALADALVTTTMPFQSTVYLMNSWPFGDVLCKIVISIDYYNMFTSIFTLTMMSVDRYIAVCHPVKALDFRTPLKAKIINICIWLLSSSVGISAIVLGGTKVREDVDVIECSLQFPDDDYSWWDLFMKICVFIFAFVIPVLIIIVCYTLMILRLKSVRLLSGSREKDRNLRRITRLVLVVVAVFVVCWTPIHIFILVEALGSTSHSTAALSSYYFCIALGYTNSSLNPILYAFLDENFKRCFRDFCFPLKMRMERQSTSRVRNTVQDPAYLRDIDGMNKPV
# Experiments:
# [1] = biological target: 5-hydroxytryptamine receptor 2A (Homo sapiens, UniProt P28223); experiment: Binding affinity to 5HT2A receptor (unknown origin) at 10 uM by radioligand displacement assay
# [2] = biological target: Delta-type opioid receptor (Homo sapiens) (UniProt P41143); experiment: Agonist activity at human delta opioid receptor expressed in CHO-K1 cells assessed as inhibition of forskolin-stimulated cAMP accumulation at <1 uM by HitHunter assay based luminescence analysis; format: functional, cell-based
# Mu-type opioid receptor = Mu-type opioid receptor (Homo sapiens, UniProt P35372); experiment: Agonist activity at human mu opioid receptor expressed in CHO-K1 cells assessed as inhibition of forskolin-stimulated cAMP accumulation at 10 uM by HitHunter assay based luminescence analysis; format: functional, cell-based
# [3] = biological target: Kappa-type opioid receptor (Homo sapiens, UniProt P41145); experiment: Agonist activity at human kappa opioid receptor expressed in CHO-K1 cells assessed as inhibition of forskolin-stimulated cAMP accumulation by HitHunter assay based luminescence analysis relative to control; format: functional, cell-based; conditions: filed as agonist
Structure (SMILES),Activity [1] [%],Activity [2],Activity (Mu-type opioid receptor),Emax [3] [%]
C/C=C1/CN2CC[C@]34C(=C(C(=O)OC)[C@H]1C[C@H]23)Nc1ccc(Br)cc14,< 50,inactive,–,–
CN(C(=O)Cc1ccc(Cl)c(Cl)c1)[C@H]1CCCC[C@@H]1N1CCCC1,–,–,inactive,100

# Activity calls are given as the source filed them. The calls are words filed in the database; no cut-off is given here.
